One experiment deals with Carbonic anhydrase 14 (Homo sapiens, UniProt Q9ULX7). The experiment can be described thus: Inhibition of recombinant human CA-XIV incubated for 15 mins by stop-flow method.
For another experiment, the target named is Carbonic anhydrase 1 (Homo sapiens, UniProt P00915). Put plainly: Inhibition of recombinant human CA-I incubated for 15 mins by stop-flow method.
A further experiment addresses Carbonic anhydrase 9 (Homo sapiens, UniProt Q16790). Put plainly: Inhibition of recombinant human CA-IX incubated for 15 mins by stop-flow method.
The target of another experiment is Carbonic anhydrase 12 (Homo sapiens, UniProt O43570). The experiment can be described thus: Inhibition of recombinant human CA-XII incubated for 15 mins by stop-flow method.
In a further experiment the target is Carbonic anhydrase 4 (Homo sapiens, UniProt P22748). The experiment can be described thus: Inhibition of recombinant human CA-IV incubated for 15 mins by stop-flow method.
The target in another experiment is Carbonic anhydrase 13 (Homo sapiens, UniProt Q8N1Q1). The experiment can be described thus: Inhibition of recombinant human CA-XIII incubated for 15 mins by stop-flow method.
In experiment [1] the target is Carbonic anhydrase 5A, mitochondrial (Homo sapiens, UniProt P35218). The experiment can be described thus: Inhibition of recombinant human CA-VA incubated for 15 mins by stop-flow method.
For another experiment, the target named is Carbonic anhydrase 2 (Homo sapiens, UniProt P00918). The experiment can be described thus: Inhibition of recombinant human CA-II incubated for 15 mins by stop-flow method.
The target in another experiment is Carbonic anhydrase 7 (Homo sapiens, UniProt P43166). The experiment can be described thus: Inhibition of recombinant human CA-VII incubated for 15 mins by stop-flow method.

The chains behind the UniProt entries cited, without tags or fusion partners. Residues count along the entry.
UniProt Q9ULX7, 16-337 limits assumed: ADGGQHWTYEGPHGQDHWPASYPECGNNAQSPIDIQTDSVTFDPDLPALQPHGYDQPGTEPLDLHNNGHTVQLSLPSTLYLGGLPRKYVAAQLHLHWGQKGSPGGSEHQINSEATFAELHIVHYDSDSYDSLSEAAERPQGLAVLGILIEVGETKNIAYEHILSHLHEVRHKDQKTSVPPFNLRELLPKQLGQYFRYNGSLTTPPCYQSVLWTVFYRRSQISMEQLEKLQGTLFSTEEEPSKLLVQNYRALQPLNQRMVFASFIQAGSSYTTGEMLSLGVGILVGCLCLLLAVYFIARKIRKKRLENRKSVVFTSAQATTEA
UniProt P00915, 2-261 limits assumed: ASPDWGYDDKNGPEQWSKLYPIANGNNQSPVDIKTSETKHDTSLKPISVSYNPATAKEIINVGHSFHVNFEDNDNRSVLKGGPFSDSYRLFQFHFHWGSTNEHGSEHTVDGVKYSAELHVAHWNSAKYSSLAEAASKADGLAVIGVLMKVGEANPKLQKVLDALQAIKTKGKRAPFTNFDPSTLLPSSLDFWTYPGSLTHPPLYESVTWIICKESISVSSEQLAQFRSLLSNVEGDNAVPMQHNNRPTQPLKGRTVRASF
UniProt O43570, 25-354 limits assumed: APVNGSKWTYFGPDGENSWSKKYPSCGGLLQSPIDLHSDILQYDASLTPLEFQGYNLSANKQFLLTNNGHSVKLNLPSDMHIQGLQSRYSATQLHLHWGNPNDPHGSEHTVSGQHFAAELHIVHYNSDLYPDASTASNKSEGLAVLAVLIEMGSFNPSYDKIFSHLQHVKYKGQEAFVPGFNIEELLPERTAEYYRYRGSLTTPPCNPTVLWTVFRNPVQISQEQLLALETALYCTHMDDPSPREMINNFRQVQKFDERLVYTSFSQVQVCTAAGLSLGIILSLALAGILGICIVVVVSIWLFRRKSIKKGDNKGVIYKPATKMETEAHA
UniProt P22748, 19-284 limits assumed: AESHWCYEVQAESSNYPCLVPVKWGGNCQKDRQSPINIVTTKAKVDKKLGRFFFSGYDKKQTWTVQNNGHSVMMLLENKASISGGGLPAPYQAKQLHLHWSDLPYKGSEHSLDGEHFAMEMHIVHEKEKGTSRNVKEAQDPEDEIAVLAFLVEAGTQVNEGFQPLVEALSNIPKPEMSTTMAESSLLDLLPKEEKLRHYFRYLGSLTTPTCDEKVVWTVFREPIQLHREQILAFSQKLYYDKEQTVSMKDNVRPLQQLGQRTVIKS
UniProt Q8N1Q1, whole entry: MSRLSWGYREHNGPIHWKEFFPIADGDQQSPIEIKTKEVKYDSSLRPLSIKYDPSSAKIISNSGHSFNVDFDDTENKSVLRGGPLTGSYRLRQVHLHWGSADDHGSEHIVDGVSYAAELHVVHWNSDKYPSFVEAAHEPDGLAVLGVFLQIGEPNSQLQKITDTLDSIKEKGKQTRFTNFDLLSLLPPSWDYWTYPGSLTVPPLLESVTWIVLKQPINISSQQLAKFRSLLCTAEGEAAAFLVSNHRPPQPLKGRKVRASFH
UniProt P35218, 39-305 limits assumed: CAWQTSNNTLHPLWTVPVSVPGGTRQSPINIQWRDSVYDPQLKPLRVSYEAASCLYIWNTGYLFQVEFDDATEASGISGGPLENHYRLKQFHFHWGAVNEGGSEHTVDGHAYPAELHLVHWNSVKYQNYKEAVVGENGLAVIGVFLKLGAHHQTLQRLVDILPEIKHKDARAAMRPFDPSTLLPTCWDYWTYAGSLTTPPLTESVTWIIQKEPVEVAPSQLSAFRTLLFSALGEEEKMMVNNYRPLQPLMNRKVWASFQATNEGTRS
UniProt P43166, whole entry: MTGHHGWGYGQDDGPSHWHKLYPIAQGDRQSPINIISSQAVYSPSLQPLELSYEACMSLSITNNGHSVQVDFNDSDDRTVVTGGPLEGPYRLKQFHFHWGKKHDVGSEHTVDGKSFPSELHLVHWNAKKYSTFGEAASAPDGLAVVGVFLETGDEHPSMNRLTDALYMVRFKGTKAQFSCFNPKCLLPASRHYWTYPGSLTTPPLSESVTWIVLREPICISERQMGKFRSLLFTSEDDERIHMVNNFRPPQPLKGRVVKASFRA

This is a selection: effects in other tests are not listed, and their absence says nothing.

Consider six compounds from ChEMBL document CHEMBL5625255, “Discovery of a novel series of potent carbonic anhydrase inhibitors with selective affinity for μ Opioid receptor for Safer and long-lasting analgesia” (2023).

For `NC(=O)C1(Nc2ccccc2)CCN(CCc2ccc(S(N)(=O)=O)cc2)CC1`, the inhibitory constant (Ki) was determined as 74.1 nM on Carbonic anhydrase 14 and 75.9 nM on Carbonic anhydrase 1.
With `NS(=O)(=O)c1ccc(NC(=S)NCC2(Nc3ccccc3)CCN(CCc3ccccc3)CC2)cc1`, the Ki came out at 18.9 nM at Carbonic anhydrase 9; 55.3 nM at Carbonic anhydrase 14; 14.8 nM on Carbonic anhydrase 12; 291 nM at Carbonic anhydrase 1; 9.18 µM at Carbonic anhydrase 4; 82.8 nM on Carbonic anhydrase 13. Besides, the results for the Ki (in experiment [1]; at Carbonic anhydrase 2; at Carbonic anhydrase 7) were 719 nM, 8.5 nM and 33.6 nM, respectively.
Regarding `Cc1ccc(NC2(C#N)CCN(CCc3ccc(S(N)(=O)=O)cc3)CC2)cc1`, the Ki on Carbonic anhydrase 9 amounted to 36.2 nM; at Carbonic anhydrase 1, 60.3 nM; in experiment [1], 261 nM.
Take `NS(=O)(=O)c1ccc(C(=O)NCC2(Nc3ccccc3)CCN(CCc3ccccc3)CC2)cc1`: the inhibitory constant (Ki) at Carbonic anhydrase 13 worked out at 70.7 nM; in experiment [1], 79.2 nM; on Carbonic anhydrase 7 it was 23.1 nM.
Turning to `NS(=O)(=O)c1ccc(NC(=O)NCC2(Nc3ccccc3)CCN(CCc3ccccc3)CC2)cc1`, the inhibition constant (Ki) at Carbonic anhydrase 12 came to 33.3 nM; on Carbonic anhydrase 1, 452 nM; in experiment [1], 796 nM; on Carbonic anhydrase 2, 33 nM; on Carbonic anhydrase 7, 24.2 nM.
Regarding `NS(=O)(=O)c1ccc(CCN2CCC(Nc3ccc4ccccc4c3)CC2)cc1`, the results for the Ki on Carbonic anhydrase 14 and at Carbonic anhydrase 4 were 253 nM and 9.21 µM, respectively.
